Laboratory results from ChEMBL document CHEMBL1148021, “(Arylpiperazinyl)cyclohexylsufonamides: discovery of alpha(1a/1d)-selective adrenergic receptor antagonists for the treatment of Benign Prostatic Hyperplasia/Lower Urinary Tract Symptoms (BPH/LUTS)” (Bioorg Med Chem Lett, 2007).

The chains behind the UniProt entries cited, without tags or fusion partners. Where a name states a change or a piece, a line headed by the entry shows the natural chain unless it says otherwise.
UniProt P35348: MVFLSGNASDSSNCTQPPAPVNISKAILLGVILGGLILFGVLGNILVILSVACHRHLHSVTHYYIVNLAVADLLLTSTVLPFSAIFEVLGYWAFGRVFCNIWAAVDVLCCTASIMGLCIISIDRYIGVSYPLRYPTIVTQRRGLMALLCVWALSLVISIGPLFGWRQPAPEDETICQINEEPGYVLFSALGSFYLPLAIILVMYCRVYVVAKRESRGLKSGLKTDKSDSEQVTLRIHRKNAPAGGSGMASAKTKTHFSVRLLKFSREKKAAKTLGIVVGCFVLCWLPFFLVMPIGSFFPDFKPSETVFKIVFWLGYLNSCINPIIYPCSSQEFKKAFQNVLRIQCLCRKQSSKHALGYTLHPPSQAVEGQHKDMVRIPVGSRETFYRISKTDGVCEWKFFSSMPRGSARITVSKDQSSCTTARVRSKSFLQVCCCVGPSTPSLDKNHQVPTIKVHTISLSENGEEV
UniProt P35368, whole entry, looked up: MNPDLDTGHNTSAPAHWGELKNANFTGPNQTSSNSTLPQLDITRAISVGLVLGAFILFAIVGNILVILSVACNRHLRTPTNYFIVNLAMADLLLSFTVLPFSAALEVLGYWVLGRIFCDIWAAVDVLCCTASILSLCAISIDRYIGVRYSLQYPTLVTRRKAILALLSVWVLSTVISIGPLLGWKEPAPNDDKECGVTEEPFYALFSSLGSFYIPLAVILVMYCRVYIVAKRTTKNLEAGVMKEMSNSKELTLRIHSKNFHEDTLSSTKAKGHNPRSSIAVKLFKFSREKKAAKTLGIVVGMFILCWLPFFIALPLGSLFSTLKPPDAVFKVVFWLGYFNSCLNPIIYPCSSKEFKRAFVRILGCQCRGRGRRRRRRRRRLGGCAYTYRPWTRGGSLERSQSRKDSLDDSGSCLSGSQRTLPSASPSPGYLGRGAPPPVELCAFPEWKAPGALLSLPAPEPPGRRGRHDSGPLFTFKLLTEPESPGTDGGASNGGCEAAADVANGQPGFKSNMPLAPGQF

Legend:
[1] = biological target: Adrenergic receptors; alpha-1 A & B (Homo sapiens) (UniProt P35348+P35368); experiment: Selectivity for human alpha-1B adrenergic receptor over human alpha1A adrenergic receptor; assay type: protein assay
Homo sapiens = species on record: Homo sapiens; experiment: Selectivity for human alpha-1B adrenergic receptor over human Alpha-1D adrenergic receptor

- Ratio Ki [1]: 23
- Ratio Ki (Homo sapiens): 33
Compound: CC(C)Oc1ccccc1N1CCN(C2CCC(NS(=O)(=O)c3cccc(F)c3)CC2)CC1 (configuration not stated)
